In PMC6254164, “Synthesis of Novel Hybrid Molecules from Precursors With Known Antiparasitic Activity” (Molecules, 2009):

Test system: Hep-2 cells
Format: cell-based
Conditions: Hep-2 and Vero cells
Experimental: The cytotoxicity of the hybrid compounds and the reference drug, metronidazole, was investigated on Hep-2 and Vero cells using the standard cytotoxicity assay and the trypan blue exclusion method. A cell suspension (10^5 cells/mL RPMI medium-10% inactivated foetal calf serum) was prepared from confluent cultures and 100 µL portions of the suspension were added to the wells of 96-well plates. The cells were incubated for 24 h at 37 °C and 5 % CO2 and the medium in each well was then replaced with fresh 150 µL medium. Solutions of the compounds or the reference drug were prepared and sterilized as described in “Antiamoebic and antigiardial activity” section above. Then, 150 µL-two fold serial dilutions of each of the compounds and the reference drug starting at a concentration of 2000 µg/mL in culture medium were prepared in the plates. After 48 hour incubation at 37 °C and 5 % CO2, the number of cells in each well was determined as follows: The medium in each well was gently replaced with 100 µL of 0.25% (w/v) trypsin-0.53 mM EDTA solution and the plates were incubated for 5 min. at 37 °C to allow cell detachment. Two-hundred microliters of trypan blue solution were added to each well and the plates were, then, placed on ice. The cells were counted in a hemacytometer at the 10X objective. Each compound was assayed in duplicate in each of three independent experiments. […]

For “3-(5-nitrofuran-2-yl)-N-[2-(5-nitroimidazol-1-yl)ethyl]acrylamide [Compound 8]”, the “cytotoxicity at the lethal concentrations against the parasites” value was “non-cytotoxic”.
